Data reported in patent publication US20020170078A1, “Calcineurin-related transgenic mammals, compositions and methods” (priority 2001, published 2002).

Tested on: Schaffer collateral pathway to area CA1 of hippocampal slices
Assay: 1-train (100 Hz) LTP, field potential recordings in hippocampal slices
Type: cell-based, mouse
Details: mutant slices (expressing calcineurin inhibitor); with KT5720 (1 uM); versus 168±17

KT5720
1-train LTP, % baseline 30 min after tetanus: 126±7 % baseline
